One may read the IC50 as the concentration at which inhibition is half-maximal.

This experiment addresses Bromodomain-containing protein 4 (Homo sapiens, UniProt O60885). Nature of the experiment: Displacement of biotinylated ligand from recombinant His-tagged BRD4 bromodomain-1 (unknown origin) measured after 10 mins by TR-FRET assay.

For the compound `CNC(=O)c1cccc(Nc2nn(CC3CC3)c3c2CN(C(C)=O)CC3)c1`, the IC50 is 12 µM. The same measure for `CC(=O)N1CCc2c(c(Nc3cccc(C(=O)N(C)C)c3)nn2CC2CC2)C1`: 13 µM.

These data come from ChEMBL document CHEMBL3864133, “Discovery of a Potent and Selective in Vivo Probe (GNE-272) for the Bromodomains of CBP/EP300” (J Med Chem, 2016).
